The values that follow are results of earlier work, collected in patent publication US20170065579A1, “Sustained Release Low Dose Formulations and Uses Thereof” (priority 2015, published 2017).

The conditions of the data set: in vivo; cited from earlier work.

Each structure is given as a SMILES string.

As to `C=CCN1CC[C@]23c4c5ccc(O)c4O[C@H]2C(=O)CC[C@@]3(O)[C@H]1C5` [naloxone], the oral bioavailability result was “poor oral bioavailability”.
